A short description of experiment [1]: Inhibitory activity against recombinant human secretory phospholipase A2 (s-PLA2) by phosphatidylcholine/deoxycholate assay (PC/DOC).
The target in a further experiment is Phospholipase A2 (Homo sapiens, UniProt P04054). As to the kind of experiment: Inhibition of recombinant human secretory phospholipase A2 (sPLA2), chromogenic screening assay.

Sequences of proteins named here, by UniProt entry; tags and fusion partners are left off. A change or cut given only in a name is not applied to a line headed by its entry.
UniProt P04054: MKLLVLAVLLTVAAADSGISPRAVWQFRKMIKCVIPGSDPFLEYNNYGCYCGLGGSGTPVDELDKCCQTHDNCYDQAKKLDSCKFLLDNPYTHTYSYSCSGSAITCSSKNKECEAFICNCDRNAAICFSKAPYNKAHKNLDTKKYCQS

In general, IC50 refers to the point on the concentration scale where inhibition reaches its midpoint.

As to `CCc1c(C(=O)C(N)=O)c2c(OCCCC(=O)O)cccn2c1Cc1ccccc1-c1ccccc1` [4-(1-Aminooxalyl-3-biphenyl-2-ylmethyl-2-ethyl-indolizin-8-yloxy)-butyric acid], the IC50 in experiment [1] is 210 nM.
For the compound `CCc1c(C(=O)C(N)=O)c2c(OCC(=O)O)cccn2c1Cc1ccc2ccccc2c1` [(1-Aminooxalyl-2-ethyl-3-naphthalen-2-ylmethyl-indolizin-8-yloxy)-acetic acid], the half-inhibitory concentration (IC50) at Phospholipase A2 is 17 nM; in experiment [1], 7.3 nM.
In the case of `CCc1c(C(=O)C(N)=O)c2c(OCC(=O)O)cccn2c1Cc1ccc(-c2ccccc2)cc1` [(1-Aminooxalyl-3-biphenyl-4-ylmethyl-2-ethyl-indolizin-8-yloxy)-acetic acid], in experiment [1], the concentration for half-maximal inhibition (IC50) was 13 nM.
`Cc1c(C(=O)C(N)=O)c2c(OCC(=O)O)cccn2c1CC1CCCCC1` [(1-Aminooxalyl-3-cyclohexylmethyl-2-methyl-indolizin-8-yloxy)-acetic acid]: the half-maximal inhibitory concentration (IC50) in experiment [1] was 15 nM.

The values above are taken from BindingDB's records for doi:10.1021/jm960395q (Shionogi, 1996).
